Test results taken from patent US7157430B2, “(Substituted)acyl dipeptidyl inhibitors of the ICE/CED-3 family of cysteine proteases” (Idun Pharmaceuticals, Inc., priority 1998, dated 2007).

Amino acid sequences for entries named in this document (tags omitted). Residues count along the entry.
UniProt P29452, 123-296 limits assumed: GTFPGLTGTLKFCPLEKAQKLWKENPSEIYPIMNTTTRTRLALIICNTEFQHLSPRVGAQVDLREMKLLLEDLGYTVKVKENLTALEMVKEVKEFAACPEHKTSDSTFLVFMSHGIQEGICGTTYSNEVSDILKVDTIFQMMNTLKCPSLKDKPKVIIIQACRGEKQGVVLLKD
UniProt P29452, 315-402 limits assumed: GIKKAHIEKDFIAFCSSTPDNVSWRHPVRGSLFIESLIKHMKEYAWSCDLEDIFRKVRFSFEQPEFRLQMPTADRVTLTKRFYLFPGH
UniProt P42574, 29-175 limits assumed: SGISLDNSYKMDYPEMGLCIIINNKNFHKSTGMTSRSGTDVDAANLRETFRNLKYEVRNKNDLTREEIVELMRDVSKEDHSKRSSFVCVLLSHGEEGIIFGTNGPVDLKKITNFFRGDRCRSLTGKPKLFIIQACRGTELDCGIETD
UniProt P42574, 176-277 limits assumed: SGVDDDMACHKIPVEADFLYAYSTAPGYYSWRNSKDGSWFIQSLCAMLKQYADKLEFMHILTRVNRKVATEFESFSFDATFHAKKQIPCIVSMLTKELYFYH
UniProt P55212, 24-179 limits assumed: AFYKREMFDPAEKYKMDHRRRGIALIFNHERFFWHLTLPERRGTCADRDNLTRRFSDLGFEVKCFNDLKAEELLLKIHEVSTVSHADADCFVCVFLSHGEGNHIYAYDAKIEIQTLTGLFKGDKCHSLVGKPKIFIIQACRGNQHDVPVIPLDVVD
UniProt P55212, 194-293 limits assumed: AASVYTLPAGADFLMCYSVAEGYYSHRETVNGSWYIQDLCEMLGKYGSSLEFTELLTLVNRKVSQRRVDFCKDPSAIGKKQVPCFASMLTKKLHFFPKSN
UniProt Q14790, 217-374 limits assumed: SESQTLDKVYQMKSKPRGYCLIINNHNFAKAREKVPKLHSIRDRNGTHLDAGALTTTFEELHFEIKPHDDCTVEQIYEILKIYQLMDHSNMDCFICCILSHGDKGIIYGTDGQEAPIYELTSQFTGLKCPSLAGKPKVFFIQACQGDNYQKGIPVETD
UniProt Q14790, 385-479 limits assumed: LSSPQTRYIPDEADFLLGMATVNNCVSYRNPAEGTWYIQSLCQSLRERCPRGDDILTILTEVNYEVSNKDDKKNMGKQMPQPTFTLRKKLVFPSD

Columns and labels:
mICE = mICE (Mus musculus, UniProt P29452); assay: Dissociation constant Ki and irreversible rate constant k3 for irreversible inhibitors, ICE; settings: continuous assay 60 min, reaction initiated by adding enzyme; for Ki: read-out: mICE Ki
Source text: (§1) For the irreversible inhibition of a ICE/ced-3 Family Protease enzyme with a competitive irreversible inhibitor; using the model represented by the following formulas: […]
(§2) The product formation at time t may be expressed as:
(§3) [formula] where E, I, EI and E-I denote the active enzyme, inhibitor, non-covalent enzyme-inhibitor complex and covalent enzyme-inhibitor adduct, respectively. The Ki value is the overall dissociation constant of the reversible binding steps, and k3 is the irreversible rate constant. The [S] and Ks values are the substate concentration and dissociation constant of the substrate bound to the enzyme, respectively. [E]^T is the total enzyme concentration.
(§4) The above equations were used to determine the Ki and k3 values of a given inhibitor bound to a ICE/ced-3 family protease. Thus, a continuous assay was run for sixty minutes at various concentrations of the inhibitor and the substrate. The assay was formulated essentially the same as described above for generating the data in Table 1, except that the reaction was initiated by adding the enzyme to the substrate-inhibitor mixture. The Ki and k3 values were obtained by simulating the product AMC formation as a function of time according to Equation 1.
(§5) The reference compound for this assay was Cbz-ValAlaAsp-CH2F and the values are denoted in Table 2 as “Reference”. The Ki values in Table 2 are in micromolar (μM). The k3/Ki values are in moles^−1 seconds^−1 (M^−1s^−1).

CPP32 = CPP32 (Homo sapiens, UniProt P42574); assay: Dissociation constant Ki and irreversible rate constant k3 for irreversible inhibitors, CPP32; settings: continuous assay 60 min, reaction initiated by adding enzyme; for Ki: read-out: CPP32 Ki
Source text: as §1, §2, §3, §4, §5

MCH-2 = MCH-2 (Homo sapiens, UniProt P55212); assay: Dissociation constant Ki and irreversible rate constant k3 for irreversible inhibitors, Mch2; settings: continuous assay 60 min, reaction initiated by adding enzyme; for Ki: read-out: MCH-2 Ki
Source text: as §1, §2, §3, §4, §5

MCH-5 = MCH-5 (Homo sapiens, UniProt Q14790); assay: Dissociation constant Ki and irreversible rate constant k3 for irreversible inhibitors, Mch5; settings: continuous assay 60 min, reaction initiated by adding enzyme; for Ki: read-out: MCH-5 Ki

mICE k3/Ki (mICE) | Ki (mICE) [nM] | CPP32 k3/Ki (CPP32) | Ki (CPP32) [nM] | MCH-2 k3/Ki (MCH-2) | Ki (MCH-2) [nM] | MCH-5 k3/Ki (MCH-5) | Ki (MCH-5) [nM] | Structure (SMILES)
4,000 M^−1s^−1 | 2340 | 10,900 M^−1s^−1 | 1100 | 20,600 M^−1s^−1 | 149 | 4,090 M^−1s^−1 | 377 | O=C(O)CC(NC(=O)[C@H](CC1CCCCC1)NC(=O)COc1ccccc1-c1ccccc1)C(=O)COc1c(F)c(F)cc(F)c1F (stereo partly shown)
6,320 M^−1s^−1 | 779 | 8,210 M^−1s^−1 | 1150 | 7,720 M^−1s^−1 | 222 | 1,260 M^−1s^−1 | 1190 | O=C(O)CC(NC(=O)[C@H](CC1CCCCC1)NC(=O)CCOc1cccc2ccccc12)C(=O)COc1c(F)c(F)cc(F)c1F (stereo partly shown)
